One may read the IC50 as the concentration at which inhibition is half-maximal. A higher IC50 goes with a need for much substance. What is called Ki is a measure of affinity in units of concentration, obtained from inhibition or displacement.

Experimental findings from ChEMBL document CHEMBL3763149, “A FRET-Based Assay for the Identification and Characterization of Cereblon Ligands” (J Med Chem, 2016) are described below.

For experiment [1], the target named is T1, Cereblon isoform 4 (Magnetospirillum gryphiswaldense, UniProt A4TVL0).
T1 sequence (A4TVL0 whole entry): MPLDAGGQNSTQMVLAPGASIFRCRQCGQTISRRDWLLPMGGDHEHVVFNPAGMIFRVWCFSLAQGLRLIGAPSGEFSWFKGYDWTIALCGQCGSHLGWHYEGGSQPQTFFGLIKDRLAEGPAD
Put plainly: Inhibition of MANT-uracil binding to wild type Magnetospirillum gryphiswaldense cereblon isoform 4 by FRET assay.

Experiment [2] deals with T2, Cereblon isoform 4 (Magnetospirillum gryphiswaldense, UniProt A4TVL0, Y101F). Put plainly: Inhibition of MANT-uracil binding to Magnetospirillum gryphiswaldense cereblon isoform 4 Y101F mutant by FRET assay.
Experiment [3] has as its target T2, Cereblon isoform 4. The experiment can be described thus: Inhibition of MANT-uracil binding to Magnetospirillum gryphiswaldense cereblon isoform 4 Y101F mutant by Cheng-Prusoff equation analysis.

For `O=C1CCC(N2C(=O)c3ccccc3C2=O)C(=O)N1` (racemic) [THALIDOMIDE], the IC50 is 7.8 µM on Cereblon isoform 4 [1] and 10.7 µM at Cereblon isoform 4 [2]. The molecule also came in with a Ki on Cereblon isoform 4 [3] of 9.6 µM.
